Experiments:
[1] = target: δ-opioid receptor (Homo sapiens, UniProt P41143); details: Arttamangkul et al., Mol. Pharmacol. 2000; cited from earlier work
[2] = target: T1, δ-opioid receptors (Mus musculus, UniProt P32300); assay: Functional bioactivity in mouse vas deferens (MVD), electrically-evoked twitch; assay type: cell-based; details: agonist alone
T1 construct: preparations of mouse vas deferens (MVD, containing δ-opioid receptors); from tissue; host or cells: mouse vas deferens
Description: Preparations of myenteric plexus-longitudinal muscle obtained from male guinea-pig ileum (GPI, enriched in μ-opioid receptors) and preparations of mouse vas deferens (MVD, containing δ-opioid receptors) were used for field stimulation with bipolar rectangular pulses of supramaximal voltage (Melchiorri et al., Eur. J. Pharm., 195: 201-207 (1991)). Agonists were evaluated for their ability to inhibit the electrically-evoked twitch. The biological potency of the compounds was compared with that of the μ-opioid receptor agonist dermorphin in GPI and with that of the δ-opioid receptor agonist deltorphin C in MVD. The results are expressed as the IC50 values obtained from dose-response curves (Prism™, GraphPad). To evaluate antagonistic properties, compounds 2 and 3 were added to the bath and allowed to interact with tissue receptor sites 5 min before adding deltorphin C. The IC50 values (nM) represent the mean of not less than six fresh tissue samples±SE. […] IC50 and pA2 values (nM) are mean ±SE of at least six experiments conducted with fresh tissues.

Amino acid sequences for entries named in this document (tags omitted). A change or cut given only in a name is not applied to a line headed by its entry.
UniProt P32300, whole entry: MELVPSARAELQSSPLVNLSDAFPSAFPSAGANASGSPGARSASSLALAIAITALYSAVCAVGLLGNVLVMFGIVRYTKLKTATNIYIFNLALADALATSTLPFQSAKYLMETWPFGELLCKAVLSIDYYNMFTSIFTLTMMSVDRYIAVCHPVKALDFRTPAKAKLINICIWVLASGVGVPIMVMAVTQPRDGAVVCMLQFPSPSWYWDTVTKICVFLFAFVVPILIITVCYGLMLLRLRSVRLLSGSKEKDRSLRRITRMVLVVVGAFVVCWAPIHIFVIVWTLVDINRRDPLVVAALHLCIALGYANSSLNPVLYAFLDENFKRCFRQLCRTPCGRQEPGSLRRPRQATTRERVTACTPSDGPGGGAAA

Question: For “Tyr-D-Ala-Phe-Asp-Val-Val-Gly-NH2 [[D-Ala^2]deltorphin I, reference compound]”, which δ-selectivity [1] is on record?
Answer: 9,000

Question: And the “Hill slope of [D-Ala2]deltorphin I log dose-response curve” value [2]?
Answer: 1.4
